# In patent publication EP0619818B1, “IMIDAZOYLALKYL SUBSTITUTED WITH A SIX MEMBERED NITROGEN CONTAINING HETEROCYCLIC RING” (SCHERING CORPORATION, priority 1991, dated 1993):
# By UniProt entry, the sequences of proteins in these tests, tags left out. Where a name states a change or a piece, a line headed by the entry shows the natural chain unless it says otherwise.
# UniProt Q9JI35: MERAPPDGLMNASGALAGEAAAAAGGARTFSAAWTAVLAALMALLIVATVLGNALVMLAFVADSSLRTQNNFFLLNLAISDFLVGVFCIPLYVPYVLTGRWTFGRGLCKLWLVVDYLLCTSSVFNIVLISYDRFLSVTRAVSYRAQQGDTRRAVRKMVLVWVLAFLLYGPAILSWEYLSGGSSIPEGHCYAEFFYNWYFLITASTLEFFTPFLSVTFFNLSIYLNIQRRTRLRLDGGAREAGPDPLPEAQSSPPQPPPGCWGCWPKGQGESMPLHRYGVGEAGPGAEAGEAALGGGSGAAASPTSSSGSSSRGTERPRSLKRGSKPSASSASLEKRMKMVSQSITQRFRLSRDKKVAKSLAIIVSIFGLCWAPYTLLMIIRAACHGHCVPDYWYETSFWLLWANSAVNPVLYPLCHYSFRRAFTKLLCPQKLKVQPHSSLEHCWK
# Target: H3 receptors (Cavia porcellus, UniProt Q9JI35)
# Assay: H3 Receptor Binding Assay
# Set-up: species or system guinea pig
row,Ki,Compound
1,12 nM,CN1CCC(=Cc2c[nH]cn2)CC1 [Compound 9.1]
2,0.8 nM,CN1CCC(Cc2c[nH]cn2)CC1 [Compound 7.2]
